## AlphaSeq binding of Ab-14 heavy chain variants to a spike HR2 peptide

Binding partner: SARS-CoV-2 spike HR2 peptide, sequence PDVDLGDISGINAS.

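The parent was found by panning a naive human phage display library on the peptide. These sequences belong to a second round, designed from the earlier measurements on random variants of the parent. Several design methods are mixed in this list. In AlphaSeq, yeast of one mating type display the scFv and yeast of the other type display the target. Mating (16 h, 30 °C) was followed by selection of diploids and sequencing of their barcodes. Scores were corrected for input abundance and mapped to Kd with protein pairs of known affinity run in the same pool. Mating was done six times.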

The variants keep the light chain, the linker and the frameworks of Ab-14 (scFv order VH, a (GGGGS)3 linker, VL).
VH: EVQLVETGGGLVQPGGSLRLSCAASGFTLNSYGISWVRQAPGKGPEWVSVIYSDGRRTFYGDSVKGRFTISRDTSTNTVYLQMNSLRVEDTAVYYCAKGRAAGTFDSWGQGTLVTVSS
VL: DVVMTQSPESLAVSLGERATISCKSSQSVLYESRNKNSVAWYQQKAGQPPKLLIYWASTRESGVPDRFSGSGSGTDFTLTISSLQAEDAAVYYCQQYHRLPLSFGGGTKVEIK

The parent's heavy chain CDRs are GFTLNSYGIS, VIYSDGRRTFYGDSVK, GRAAGTFDS; each variant's own CDRs replace them letter for letter.
This list holds designs with more than six substitutions.
The Kd shown is the geometric mean over detected replicates; a lower Kd is a better binder.
An entry "nd" has no value in the source: the pair was not observed among the diploids in any replicate. This suggests poor binding but is not conclusive.
The parent sequence was in this pool as ten entries: three were never detected, three once, and four in most replicates, with averages from 2.2 nM to 240 nM.

For GKDIDEYGIS | VIYADGRRTFVIDSVK | GMNSGFVLA, the assay gave nd (0 of 6 replicates). With GFDLDEQGIS | VIYADGQRKAYADQVK | GMQGVIART the result was nd (0 of 6 replicates). For GFDLDEYGIS | VIYADGKRTAYIDSVK | GNEAGTFDV, the assay gave 610 pM (6 of 6 replicates). The variant GFDLDEYGIS | VIYADGMRKAYSDSVK | GENAGTFDV gave 350 pM (6 of 6 replicates). The variant GFDLNEYGIS | VIYADGMRTAYADNVK | GANAGTFDV showed 270 pM (6 of 6 replicates). The variant GFDLEDYGIS | VIYADGRRTFYSDSVK | GEIAGTFDT showed 440 pM (6 of 6 replicates). The variant GFDLNEYGIS | VIYADGKRTAYADSVK | GQNAGTFDT showed 170 pM (6 of 6 replicates). For GFDLNEYGIS | VIYADGVRTAYADSVK | GETAGTFDQ, the assay gave 1.0 nM (6 of 6 replicates). With GESLEEYGIS | VIYADGMREQYVDSVK | GRQGGFFVV the result was nd (0 of 6 replicates).

The variant GFDLNEYGIS | VIYADGKRTYYADSVK | GENAGTFDM gave 890 pM (5 of 6 replicates). For GFDLNEYGIS | VIYADGMRSAYADSVK | GEVAGTFDV, the assay gave 490 pM (6 of 6 replicates). The variant GFDLDEYGIS | VIYADGMRTAYSDSVK | GANAGTFDM gave 420 pM (6 of 6 replicates). The variant GFTLNEYGIS | VIYADGMRTQYADQVK | GNLVATVMT gave nd (0 of 6 replicates). The variant GFDLNEYGIS | VIYADGMRTAYADNVK | GNNAGTFDM showed 5.8 nM (6 of 6 replicates). The variant GFNLDEYGIS | VIYADGRRTFYADSVK | GNSAGTFDS showed 600 pM (6 of 6 replicates). The variant GFNLLEYGIS | VIYADGRRTFYTDSFK | GGLGKDLTD showed nd (0 of 6 replicates). The variant GFDLNEYGIS | VIYADGMRTHYTDSVK | GNNAGTFDS gave 920 pM (6 of 6 replicates). The variant GFDLNEYGIS | VIYADGKRTFYADDVK | GNVAGTFDV showed 2.4 nM (6 of 6 replicates).

The variant GFDLNEYGIS | VIYADGERTAYADSVK | GENAGTFDV showed 3.7 nM (6 of 6 replicates). For GFDLEDYGIS | VIYADGRRTFYADSVK | GNVAGTFDA, the assay gave 1.0 nM (6 of 6 replicates). For GFDLDEYGIS | VIYADGKRTFYADSVK | GENAGTFDL, the assay gave 440 pM (6 of 6 replicates). With GFNLNEYGIS | VIYADGRRSFYTDSVK | GEAAGTFDV the result was 270 pM (6 of 6 replicates). For GFDLDEYGIS | VIYADGRRTAYADDVK | GQNAGTFDV, the assay gave 500 pM (6 of 6 replicates). The variant GFDLNEYGIS | VIYADGMRTAYSDSVK | GGNAGTFDS gave 390 pM (6 of 6 replicates). With GFDLGEYGIS | VIYADGQRRAYIDAVK | GHSSGDYLA the result was nd (0 of 6 replicates). The variant GFDLNEYGIS | VIYADGKRTAYVDSVK | GNVAGTFDV gave 270 pM (6 of 6 replicates). For GFDLNEYGIS | VIYADGMRKAYADSVK | GANAGTFDV, the assay gave 220 pM (6 of 6 replicates).

The variant GFNLDEYGVS | VIYADGHRTAYVNTVK | GKTGFVLDD showed nd (0 of 6 replicates). With GFTLDEYGIS | VIYADGRRTFYTDSVK | GQNAGTFDV the result was 250 pM (6 of 6 replicates). The variant GFDLDEYGIS | VIYADGRRTFYADSVK | GELAGTFFQ showed 210 pM (5 of 6 replicates). For GFDLGEYGIS | VIYADGVRQSYVDKVK | GANGVDLLV, the assay gave nd (0 of 6 replicates).

From the list, the first 2 with no signal in any replicate:

Variant GKDIDEYGIS | VIYADGRRTFVIDSVK | GMNSGFVLA showed nd (0 of 6 replicates).
Variant GFDLDEQGIS | VIYADGQRKAYADQVK | GMQGVIART showed nd (0 of 6 replicates).

In the paper, a design with two or fewer of six values counts as a poor binder.
Values of this round are not directly comparable with the first-round values of the same sequences.
Three control strains display no target. For all heavy chain designs, 1% of the pairings with them gave a signal, with a median of 120 nM and one signal in twenty below 7.0 nM, so weak values seen in few replicates may be background.

Data: MIT Lincoln Laboratory AlphaSeq set, Li et al. 2023, doi:10.1038/s41467-023-39022-2, as distributed in FLAb.